As usually defined, the inhibition is the change of the read-out against control, counted positive when it falls.

Protein sequences, listed by entry. Tags and fused reporters are not part of them.
UniProt Q15596, whole entry: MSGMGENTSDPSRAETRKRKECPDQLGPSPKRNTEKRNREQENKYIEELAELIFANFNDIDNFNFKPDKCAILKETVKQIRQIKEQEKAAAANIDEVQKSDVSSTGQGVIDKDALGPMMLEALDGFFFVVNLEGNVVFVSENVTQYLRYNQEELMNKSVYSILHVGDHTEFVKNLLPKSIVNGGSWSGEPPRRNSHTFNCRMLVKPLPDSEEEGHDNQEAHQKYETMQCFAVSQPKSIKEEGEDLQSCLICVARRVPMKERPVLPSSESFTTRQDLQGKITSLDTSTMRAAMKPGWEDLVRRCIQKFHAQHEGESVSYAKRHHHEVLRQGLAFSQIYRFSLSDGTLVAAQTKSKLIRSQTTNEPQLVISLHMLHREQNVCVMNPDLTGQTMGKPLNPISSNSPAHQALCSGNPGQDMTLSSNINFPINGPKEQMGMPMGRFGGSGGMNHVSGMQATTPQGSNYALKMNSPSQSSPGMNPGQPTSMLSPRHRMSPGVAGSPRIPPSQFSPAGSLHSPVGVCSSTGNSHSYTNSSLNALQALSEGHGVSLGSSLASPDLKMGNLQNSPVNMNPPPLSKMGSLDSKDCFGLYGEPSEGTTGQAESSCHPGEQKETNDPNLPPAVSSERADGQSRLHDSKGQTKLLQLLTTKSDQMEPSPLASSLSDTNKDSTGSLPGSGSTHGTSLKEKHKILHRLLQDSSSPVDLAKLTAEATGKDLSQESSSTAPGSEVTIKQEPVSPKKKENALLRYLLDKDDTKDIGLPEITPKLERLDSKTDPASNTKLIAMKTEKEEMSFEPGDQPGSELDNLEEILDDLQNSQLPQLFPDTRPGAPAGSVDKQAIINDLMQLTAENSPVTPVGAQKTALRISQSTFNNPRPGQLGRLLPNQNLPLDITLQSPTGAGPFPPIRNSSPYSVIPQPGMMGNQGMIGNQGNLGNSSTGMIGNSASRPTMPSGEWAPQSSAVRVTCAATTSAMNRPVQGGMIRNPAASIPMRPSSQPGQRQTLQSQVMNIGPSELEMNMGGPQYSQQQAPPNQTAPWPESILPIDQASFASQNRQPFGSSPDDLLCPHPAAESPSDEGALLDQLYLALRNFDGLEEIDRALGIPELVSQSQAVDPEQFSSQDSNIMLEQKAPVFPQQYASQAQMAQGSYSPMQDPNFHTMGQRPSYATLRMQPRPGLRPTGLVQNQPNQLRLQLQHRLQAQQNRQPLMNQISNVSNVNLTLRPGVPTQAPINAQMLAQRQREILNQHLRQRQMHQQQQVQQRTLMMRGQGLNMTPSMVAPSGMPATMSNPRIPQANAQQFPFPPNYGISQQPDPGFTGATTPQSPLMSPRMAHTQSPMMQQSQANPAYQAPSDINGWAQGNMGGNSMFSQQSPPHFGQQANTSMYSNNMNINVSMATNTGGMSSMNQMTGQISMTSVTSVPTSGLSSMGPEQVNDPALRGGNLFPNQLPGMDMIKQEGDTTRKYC

Each structure is given as a SMILES string. Only a part is listed here, and it is no random draw. Active and inactive are the calls of the source.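 The calls were made as follows: active = inhibition above the mean inhibition of all tested compounds plus 3 SD, set per campaign (cut at about 52% in these data); inactive = the rest.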

In PubChem BioAssay AID651957 (The Scripps Research Institute Molecular Screening Center, 2012) one finds inhibition data, which are given here for 25 compounds.

The target of this test is Nuclear receptor coactivator 2 (Homo sapiens) (UniProt Q15596). In words: inhibition of GAL4-SRC2 driven luciferase reporter, primary screen, SRC2 inhibitor project, cell-based, luminescence (AID 651957).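 Also: 0% = DMSO treated cells and 100% = cells given Gossypol at 36 µM.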 Particulars: HEK293 GAL4-SRC2 luciferase reporter, at 9 µM, active compounds read high.
Consider `Cc1cc(N(CCCl)CCCl)ccc1C=O`, for which the inhibition was inactive: 11.8%.

For the compound `O=c1[nH]c2ccccc2n1C1CCN(C(c2ccccc2)c2nnnn2C2CCCC2)CC1` (stereo not given), the inhibition was inactive: -22.9%.

Turning to `CCCN1CCC(Nc2cc(OC)cc(OC)c2)CC1`, the inhibition is inactive: 10.2%.

Consider `c1ccc(CN2CCC(Nc3ccccc3)CC2)cc1`, for which the inhibition is inactive: 25.8%.

For the compound `C/C(N)=N\P(=O)(Oc1ccccc1)Oc1ccccc1`, the inhibition was inactive: -17.4%.

Take `CN(C)C1(CNC(=O)c2cccc(C#N)c2)CCCCC1`: the inhibition is inactive: -24.9%.

As to `CC(C)(C)n1nnnc1C(c1cccc2ccccc12)N1CCC(n2c(=O)[nH]c3ccccc32)CC1` (stereo not given), the inhibition is inactive: 8.16%.

Take `CC(C)(C)OC(=O)N1CCC(N(C(=O)c2ccccc2)c2ccc(Cl)cc2)CC1`: the inhibition was inactive: 6.44%.

Turning to `N#Cc1ccc(C(=O)NCC2(N3CCCCC3)CCCCC2)cc1`, the inhibition is inactive: 0.78%.

As to `N/C(=N\O)c1c(N)no[n+]1[O-]`, the inhibition is inactive: -9.29%.

Consider `COc1cccc(C(c2nnnn2C(C)(C)C)N2CCC(n3c(=O)[nH]c4ccccc43)CC2)c1OC` (stereo not given), for which the inhibition was inactive: 10.7%.

As for `CCOC(=O)N1CCC(Nc2ccc(C)cc2)CC1`, the inhibition is inactive: -14.3%.

As for `CCCCn1nnnc1C(c1cccc(OC)c1OC)N1CCC(n2c(=O)[nH]c3ccccc32)CC1` (stereo not given), the inhibition is inactive: -14.8%.

Take `O=c1[nH]c2ccccc2n1C1CCN(C(c2cccs2)c2nnnn2C2CCCC2)CC1` (stereo not given): the inhibition was inactive: -5.07%.

Consider `O=C(OC1CN2CCC1CC2)C1c2ccccc2C=Cc2ccccc21` (stereo not given), for which the inhibition is inactive: -35.5%.

On to `O=C(NCC1(N2CCOCC2)CCCCC1)c1cc(Br)ccc1Cl`, for which the inhibition is inactive: 6.32%.

With `COc1cc(C(=O)NCC2(N3CCOCC3)CCCCC2)cc(OC)c1C`, the inhibition is inactive: 14.6%.

Consider `CCCCn1nnnc1C(c1ccccc1)N1CCC(n2c(=O)[nH]c3ccccc32)CC1` (stereo not given), for which the inhibition is inactive: -4%.

With `O=c1[nH]c2ccccc2n1C1CCN(C(c2ccnc3ccccc23)c2nnnn2C2CCCC2)CC1` (stereo not given), the inhibition was inactive: 5.78%.

With `COc1ccc(C(=O)NCC2(N3CCOCC3)CCCCC2)cc1OC`, the inhibition is inactive: 9.38%.

As to `NC(=O)C1(Nc2ccccc2)CCN(Cc2ccccc2)CC1`, the inhibition is inactive: -38.6%.

Regarding `O=c1[nH]c2ccccc2n1C1CCN(C(c2cccs2)c2nnnn2C2CCCCC2)CC1` (stereo not given), the inhibition was inactive: 11.6%.

For the compound `CCC(CO)(C(=O)OC1CN2CCC1CC2)c1ccccc1` (stereo not given), the inhibition was inactive: -19%.

With `COc1cccc(C(=O)N(c2cc(C)cc(C)c2)C2CCN(C(=O)OC(C)(C)C)CC2)c1`, the inhibition is inactive: -4.58%.

Turning to `COc1cccc(C(c2nnnn2C2CCCC2)N2CCC(n3c(=O)[nH]c4ccccc43)CC2)c1OC` (stereo not given), the inhibition is inactive: 9.56%.
